## Apparent affinities of Ab-14 variants for a coronavirus HR2 peptide

The target is the same throughout: PDVDLGDISGINAS, from the HR2 region of SARS-CoV-2 spike.

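Variants in AAYL49 differ from the parent at up to three CDR positions; double and triple changes were sampled at random. The assay is AlphaSeq: two haploid yeast populations carry antibody and antigen on their surface. Binding brings cells together so that they mate, and sequencing counts the barcode pairs among the diploids. A regression on co-assayed BCL2-family reference pairs converts the normalised counts of each replicate to an apparent Kd. Each pool was mated in three replicate cultures.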

Parent: Ab-14, a human scFv built as VH, a 15-residue (Gly4Ser)3 linker, VL. Only the CDRs of the heavy chain vary.
VH: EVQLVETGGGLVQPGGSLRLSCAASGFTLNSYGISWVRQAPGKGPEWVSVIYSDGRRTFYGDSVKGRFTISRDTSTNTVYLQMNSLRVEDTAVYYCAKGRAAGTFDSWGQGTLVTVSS
VL: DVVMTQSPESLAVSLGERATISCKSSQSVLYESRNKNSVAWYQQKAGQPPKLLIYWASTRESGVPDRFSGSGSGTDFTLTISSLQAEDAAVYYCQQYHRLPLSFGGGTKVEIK

Variants are written as CDR1, CDR2 and CDR3 of the heavy chain (limits as in the source). Parent: GFTLNSYGIS, VIYSDGRRTFYGDSVK, GRAAGTFDS.
All variants listed here change D62 of the VH, counted from its first residue.
The read-out is the apparent dissociation constant on a log10 scale (nM): the lower, the stronger.
A mean of the replicates is given; it leaves out those without a signal.
"no signal" marks a missing value. The strain was present, yet no cells mated with the target were sequenced in any replicate, which points to weak or no binding.
As a blank, each scFv also met three strains without target: over library AAYL49, 15% of these pairings were detected, typically at 4.06 and seldom below 2.83.
For reference, the parent read 0.65 as the reference entry and 4.11 (one replicate of three) as a member of this library.

The variant GCTLASYGIS, VIYSDGRRTFYGNSVK, GRAAGTFDS showed 2.61 (1 of 3 replicates).
The variant GITLNSYGIW, VIYSDGRRTFYGSSVK, GRAAGTFDS showed 3.67 (1 of 3 replicates).
The variant GFTPNSYGIS, VIYSDGRRTFYGKDVK, GRAAGTFDS showed no signal (0 of 3 replicates).
The variant GFTLNCYCIS, VIYSDGRRTFYGASVK, GRAAGTFDS showed no signal (0 of 3 replicates).
The variant GFTLNSYGIS, VIYSDGRRTFYDYSVK, GRAAGTFDC showed 3.87 (1 of 3 replicates).
The variant GFTLNSYGHS, VIYSDSRRTFYGHSVK, GRAAGTFDS showed no signal (0 of 3 replicates).
The variant GFTLNSYGIS, VIYSDGRRTFYGVSVK, GRAMLTFDS showed no signal (0 of 3 replicates).
The variant GFRLNSYGIS, VIYSDGRRTFYGSSVK, GRACGTFDS showed 3.68 (2 of 3 replicates).
The variant GFTLNSYGIS, VIMSDGRRTFYGLSVV, GRAAGTFDS showed no signal (0 of 3 replicates).
The variant GFLLNSYGIS, VIYSDGRRTFYGGSVK, GRAVGTFDS showed 4.10 (1 of 3 replicates).
The variant GFTLLSYGIS, VIYSDGRNTFYGTSVK, GRAAGTFDS showed 6.07 (1 of 3 replicates).
The variant GFTLNSYGIS, VIYHDGRRTFYGYSVK, GRAAGTFDD showed no signal (0 of 3 replicates).
The variant PRTLNSYGIS, VIYSDGRRTFYGWSVK, GRAAGTFDS showed 2.31 (1 of 3 replicates).
The variant GFTLNSYGIS, VIYSDGRRTFCGGSVK, GRDAGTFDS showed 4.27 (2 of 3 replicates).
The variant KFTLNSYGIS, VEYSDGRRTFYGPSVK, GRAAGTFDS showed 3.67 (1 of 3 replicates).
The variant GFTLNSYGIS, VIYSDGRRTFYMISVK, ERAAGTFDS showed 4.91 (1 of 3 replicates).
The variant GFTLNSYGIS, VIYSDGRRTWYGCSVC, GRAAGTFDS showed no signal (0 of 3 replicates).
The variant GFTLNSYGIS, CIESDGRRTFYGNSVK, GRAAGTFDS showed no signal (0 of 3 replicates).
The variant AFTLNSYGIS, VIYSDGRRTFYGKSVD, GRAAGTFDS showed 4.35 (3 of 3 replicates).
The variant GFTLNQYGIS, VIYSDGRRTFLGHSVK, GRAAGTFDS showed 3.41 (1 of 3 replicates).
The variant GFTLNSYGIS, VIYSDGRRTFYGQSVK, SRAAGTFDG showed no signal (0 of 3 replicates).
The variant GFTLNSYGIS, VIYSDSRRTFYGESVK, GRAAGPFDS showed no signal (0 of 3 replicates).
The variant GFTLNSYGIS, VIYSDGRRTFYCRSVK, GRAHGTFDS showed no signal (0 of 3 replicates).
The variant GFTLNSYGWS, VIYSDGRRTFYGFSVK, GRAAGTFDS showed no signal (0 of 3 replicates).
The variant GFTLNSYGIS, VIYSDGRRTMYGMSVK, GRRAGTFDS showed 5.76 (1 of 3 replicates).
The variant GFTLNSYGIS, VIYSDGRRTFEGLSWK, GRAAGTFDS showed 3.65 (1 of 3 replicates).
The variant GFTLNSYWIS, VIYSDGRRTFYGCSVK, GRAAGTFLS showed no signal (0 of 3 replicates).
The variant GFTLNSYGIS, VIYSDGRRTFYGNCVK, CRAAGTFDS showed 4.87 (2 of 3 replicates).
The variant GFTLNSYGIS, VIYSSGTRTFYGYSVK, GRAAGTFDS showed 4.20 (1 of 3 replicates).
The variant GMTLNSYGIS, VIYSDGRRTFYGPSVK, GRAAGMFDS showed 3.16 (3 of 3 replicates).
The variant GFTLNSYGIS, VIYSDGRRTFYGNSVK, GRAAGTFDC showed 5.33 (1 of 3 replicates).
The variant GHTLHSYGIS, VIYSDGRRTFYGQSVK, GRAAGTFDS showed no signal (0 of 3 replicates).
The variant GDTLNKYGIS, VIYSDGRRTFYGCSVK, GRAAGTFDS showed 3.80 (2 of 3 replicates).
The variant GFTQNSYGIS, VIYSDMRRTFYGFSVK, GRAAGTFDS showed no signal (0 of 3 replicates).
The variant GITLNSYGGS, VIYSDGRRTFYGNSVK, GRAAGTFDS showed 3.07 (1 of 3 replicates).
The variant GFTLNSYGIS, VIYSDGCRTFSGNSVK, GRAAGTFDS showed 4.73 (1 of 3 replicates).

Reference: Engelhart et al. 2022, doi:10.1038/s41597-022-01779-4. File: FLAb, binding data.